Reference: patent US6033847, “InK4c-p18 and InK4d-p19, inhibitors of cyclin-dependent kinases CDK4 and CDK6, and uses thereof” (St. Jude Children's Research Hospital, dated 2000)

Experiments:
Assay in all cases: control GST beads, pull-down of 35S-labelled in vitro translated CDKs
mouse CDK6 = mouse CDK6 (mouse, UniProt Q64261)
Protocol: (§1) Equal aliquots of the "input" samples shown in lanes 1–6 were incubated with control beads (lanes 7–12) (i.e., GST-Sepharose; GST=glutathione S-transferase) or with beads containing a GST-p19 fusion protein (lanes 13–18), after which the beads were washed, and adsorbed radiolabeled products were separated on gels and autoradiographed. In Panel B, the experiments were performed as in panel A, except that radiolabeled cyclins D2 and D3 were substituted for cdk gene products; the cdk4 gene product was used as a positive control. All autoradiographic exposure times were 15 hrs.
(§2) Human InK4 polypeptides specifically bind to the cyclin D-dependent catalytic subunits, CDK4 and CDK6 (5,18,45). To study the interactions of mouse p19 and p18 with CDKs, cDNAs encoding CDC2 (CDK1) and CDKs 2–6 were transcribed and translated in vitro, and the radiolabeled products were mixed with GST-tagged p19 and p18 fusion proteins adsorbed to glutathione-Sepharose beads or to GST-Sepharose beads as a control.
(§3) Plasmids derived from pBluescript and containing the entire coding sequences of the mouse cdk2, cdk4, cdk5, or cdk6 genes (Matsuoka et al., Mol. Cell. Biol. 14:7265–7275 (1994); Matsushime et al., Cell 71:323–334 (1992)) or human cdc2/cdk1 or cdk3 genes (provided by Drs. Matthew Meyer-son and Edward Harlow (MGH Cancer Center, Cambridge, Mass.)) were transcribed and translated in vitro (Matsuoka et al., Mol. Cell. Biol. 14:7265–7275 (1994)). Mouse cdk6 cDNA was cloned from a mouse macrophage library (Stratagene, La Jolla, Calif.) by screening with a full-length human cdk6 clone (also provided by M. Meyerson and E. Harlow). […] After 2 hours of incubation at 4° C., beads were collected by centrifugation, washed 4 times in IP kinase buffer, and the bound proteins were denatured and analyzed by electrophoresis on 12.5% polyacrylamide gels containing SDS (Anderson, S. J., et al., J. Virol. 51:730–741 (1984)).

mouse CDK5 = mouse CDK5 (mouse, UniProt P49615)
Protocol: as §1, §2, §3

mouse CDK4 = biological target: T1, mouse CDK4 (mouse, UniProt P30285)
T1 sequence: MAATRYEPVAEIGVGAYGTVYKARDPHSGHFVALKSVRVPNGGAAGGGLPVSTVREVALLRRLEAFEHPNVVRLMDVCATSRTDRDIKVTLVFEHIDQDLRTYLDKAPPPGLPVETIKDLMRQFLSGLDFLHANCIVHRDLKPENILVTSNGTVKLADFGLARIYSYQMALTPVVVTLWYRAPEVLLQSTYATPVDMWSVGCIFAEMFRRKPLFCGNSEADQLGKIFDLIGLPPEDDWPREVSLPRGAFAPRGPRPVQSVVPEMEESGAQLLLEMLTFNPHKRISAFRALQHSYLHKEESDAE
Protocol: as §1, §2, §3

Measured: binding result

B1: GST (glutathione S-transferase), control protein (other)
chain: MSPILGYWKIKGLVQPTRLLLEYLEEKYEEHLYERDEGDKWRNKKFELGLEFPNLPYYIDGDVKLTQSMAIIRYIADKHNMLGGCPKERAEISMLEGAVLDIRYGVSRIAYSKDFETLKVDFLSKLPEMLKMFEDRLCHKTYLNGDHVTHPDFMLYDALDVVLYMDPMCLDAFPKLVCFKKRIEAIPQIDKYLKSSKYIAWPLQGWQATFGGGDHPPK
no binding (tested: 1 ug on beads): mouse CDK6 | mouse CDK5 | mouse CDK4
